Reference: ChEMBL document CHEMBL4477245, “Development of a Series of (1-Benzyl-3-(6-methoxypyrimidin-3-yl)-5-(trifluoromethoxy)-1H-indol-2-yl)methanols as Selective Protease Activated Receptor 4 (PAR4) Antagonists with in Vivo Utility and Activity Against γ-Thrombin” (J Med Chem, 2016)

Target: T1, Proteinase-activated receptor 1 (Homo sapiens, UniProt P25116)
T1 sequence (P25116 whole entry): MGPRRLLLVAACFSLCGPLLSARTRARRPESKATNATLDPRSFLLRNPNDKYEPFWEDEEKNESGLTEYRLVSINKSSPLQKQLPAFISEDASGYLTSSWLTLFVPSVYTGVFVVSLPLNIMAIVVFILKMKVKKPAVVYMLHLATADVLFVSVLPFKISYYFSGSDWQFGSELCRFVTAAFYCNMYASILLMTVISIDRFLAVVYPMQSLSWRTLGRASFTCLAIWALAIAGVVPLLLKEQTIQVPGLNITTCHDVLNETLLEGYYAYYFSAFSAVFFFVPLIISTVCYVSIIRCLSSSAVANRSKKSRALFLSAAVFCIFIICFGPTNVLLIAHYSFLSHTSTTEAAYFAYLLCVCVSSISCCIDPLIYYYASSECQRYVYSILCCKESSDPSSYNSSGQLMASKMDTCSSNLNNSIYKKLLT
Experiment: Inhibition of PAR1 (unknown origin)

## CSc1ncc(-c2c(CO)n(Cc3ccccc3Cl)c3ccc(OC(F)(F)F)cc23)cn1
  IC50: > 30 µM

## COc1ccc(-c2c(CO)n(Cc3ccccc3Cl)c3ccc(OC(F)(F)F)cc23)cn1
  IC50: > 30 µM
